An excerpt weighted towards active compounds, which were near 2.3% of everything screened.
NRP1-CendR mod: modulators of CendR peptide binding to NRP-1, primary screen, biochemical, fluorescence polarization, uHTS; inhibition, % at 25 µM; 360,000 tested, 0.85% active; FAM-RPARPAR peptide binding to NRP-1; Neuropilin-1 (Homo sapiens), O14786; AID 602438, 2012;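 active = inhibition or corrected inhibition above about 18%, plus a signal ratio from 0.5 to 1.5, limit read from the data, passing the limit was not always enough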
MC4R ag barr: MC4R agonists recruiting beta-arrestin, primary screen, cell-based, luminescence, agonist arm of biased-ligand search. Melanocortin receptor 4 (Homo sapiens), P32245. U2OS MC4R beta-arrestin complementation; percent of melanotan II response, DMSO zero. activation, % at 8.9 µM. 360,000 tested, 0.98% active;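 active = activation above a per-plate cutoff, the mean activation of sample wells on that plate plus 3 SD, cut at about 8% in these data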
MC4R antagonist: MC4R antagonists of cAMP signaling, primary screen, cell-based, TR-FRET, antagonist arm of biased-ligand search. Melanocortin receptor 4 (Homo sapiens), P32245. MC4R-expressing cells, MTII-stimulated cAMP, LANCE TR-FRET. AID 540295, 2011. 360,000 tested, 0.48% active. inhibition, % at 6.5 µM;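 active = inhibition above its plate's cutoff, the mean of tested wells on that plate plus 3 SD, cut at about 29% in these data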;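 note: 0% = Melanotan II alone and 100% = Melanotan II plus saturating MCL0020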
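Assay system: U2OS cells stably expressing human melanocortin 4 receptor (MC4R) / Dosing: 6.5 µM / Timing: compound 30 min, challenge 1 h, detection 1 h / Measured by: Eu-cAMP/anti-cAMP TR-FRET, emission 671 nm / Replicates: singlicate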
ASAP1 inh: inhibitors of human ASAP1 ArfGAP activity, primary screen, biochemical, fluorescence polarization. ASAP1-stimulated ARF1 GTP hydrolysis, GDP FP detection. inhibition, % at 16.5 µM. 360,000 tested, 0.19% active; in the data active = inhibition above about 25%;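 note: 0% = vehicle with enzyme and substrate and 100% = no enzyme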
Yeast UUG start: yeast start codon fidelity modulation; activity score, % at 18.7 µM; actives 0.13% (n = 350,000); S. cerevisiae UUG-firefly luciferase reporter, luminescence/redox ratio; AID 602363;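 active means replicate mean at a twofold rise or more, about +100% in these data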;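 further: firefly luciferase made from a UUG start codon reports start codon fidelity; reporter light over untreated wells divided by growth signal over untreated wells; some hits fall short of that in this replicate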
ARFGAP1 inhibitor: inhibitors of rat ARFGAP1 GAP activity, primary screen, biochemical, fluorescence polarization, GDP tracer | AID 651572, 2012 | Arfgap1-stimulated ARF1 GTP hydrolysis, GDP FP detection | inhibition, % at 16.5 µM | 360,000 tested, 0.26% active;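 active = inhibition above a per-plate limit, mean inhibition of low control wells plus 3 SD, cut at about 25% in these data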;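 note: 0% = DMSO wells with enzyme and 100% = wells lacking Arfgap1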
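System: truncated rat Arfgap1 GAP domain / Benchmarks: high control wells lacking Arfgap1, low control full reaction with DMSO / Times: compound-enzyme preincubation 20 min, reaction 120 min, detection 60 min, 25 °C / Repeats: one replicate per compound / Also added: human ARF1(Δ1-17)-GTP substrate / Measured by: Tracer-displacement fluorescence polarization with EDTA stop, 620/688 nm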
MC4R barr ag: MC4R beta-arrestin agonists, retest, confirmation, cell-based, luminescence, U2OS. AID 602192, 2012. shares compounds with MC4R ag barr. U2OS MC4R beta-arrestin recruitment; scaled DMSO 0%, Melanotan II 100%. 2,400 tested, 31% active. activation, % at 8.9 µM;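 active = mean activation across replicates above the hit cutoff set in the earlier primary screen, cut at about 8% in these data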
MOR DOR agonist: agonists of MOR-DOR heterodimerization, counter-screen for MC4R biased agonist project, cell-based, luminescence. activation, % at 9.2 µM. 2,400 tested, 5.8% active. shares compounds with MC4R ag barr. U2OS PathHunter beta-arrestin, beta-gal luminescence; percent of deltorphin B response, DMSO zero. AID 602194, 2012;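 active = mean activation across replicates exceeds the hit threshold derived in the earlier primary screen, cut at about 18% in these data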;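 note: 100% = deltorphin B at 0.9 µM final and 0% = DMSO alone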
An asterisk follows results filed as active; x = no result.

Chains of the proteins cited; added tags and fusions are not shown.
Neuropilin-1 (Homo sapiens), O14786, UniProt O14786, whole entry, looked up: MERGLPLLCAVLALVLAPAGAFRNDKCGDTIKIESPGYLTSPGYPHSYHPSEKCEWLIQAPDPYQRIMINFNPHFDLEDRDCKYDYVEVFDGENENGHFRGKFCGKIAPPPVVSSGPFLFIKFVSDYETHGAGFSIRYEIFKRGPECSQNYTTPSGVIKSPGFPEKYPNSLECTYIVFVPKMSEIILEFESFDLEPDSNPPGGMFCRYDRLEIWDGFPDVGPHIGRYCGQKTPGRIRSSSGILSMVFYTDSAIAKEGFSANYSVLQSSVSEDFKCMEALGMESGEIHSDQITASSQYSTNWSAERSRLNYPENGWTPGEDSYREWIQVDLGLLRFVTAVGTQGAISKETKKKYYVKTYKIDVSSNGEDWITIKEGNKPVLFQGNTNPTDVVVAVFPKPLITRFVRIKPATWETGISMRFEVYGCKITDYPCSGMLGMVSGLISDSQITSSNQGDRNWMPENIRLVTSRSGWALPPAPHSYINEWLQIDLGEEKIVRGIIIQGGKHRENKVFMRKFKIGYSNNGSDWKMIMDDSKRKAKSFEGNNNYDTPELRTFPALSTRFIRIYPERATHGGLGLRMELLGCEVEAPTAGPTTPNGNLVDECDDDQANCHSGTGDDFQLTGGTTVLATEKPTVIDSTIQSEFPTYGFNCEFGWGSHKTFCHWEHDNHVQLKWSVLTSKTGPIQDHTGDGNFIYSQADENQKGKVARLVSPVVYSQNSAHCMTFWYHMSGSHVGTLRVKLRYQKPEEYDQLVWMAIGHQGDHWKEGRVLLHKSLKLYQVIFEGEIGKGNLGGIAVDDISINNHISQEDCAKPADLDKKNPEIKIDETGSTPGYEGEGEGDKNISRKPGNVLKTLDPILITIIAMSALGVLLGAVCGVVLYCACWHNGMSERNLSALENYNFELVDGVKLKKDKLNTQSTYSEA
Melanocortin receptor 4 (Homo sapiens), P32245, UniProt P32245, whole entry, looked up: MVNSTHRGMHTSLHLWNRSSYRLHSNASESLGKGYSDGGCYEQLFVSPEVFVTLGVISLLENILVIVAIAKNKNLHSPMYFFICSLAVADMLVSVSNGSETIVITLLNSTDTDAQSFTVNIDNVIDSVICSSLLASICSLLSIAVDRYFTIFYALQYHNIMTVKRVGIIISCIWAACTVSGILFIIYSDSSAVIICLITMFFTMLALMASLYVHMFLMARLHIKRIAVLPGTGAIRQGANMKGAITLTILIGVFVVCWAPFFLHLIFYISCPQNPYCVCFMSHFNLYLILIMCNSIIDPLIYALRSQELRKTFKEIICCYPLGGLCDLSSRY

SMILES | MC4R antagonist | MC4R ag barr | MOR DOR agonist | Yeast UUG start | ASAP1 inh | NRP1-CendR mod | ARFGAP1 inhibitor | MC4R barr ag
CC(=O)c1cccc(N/C=C\c2nnnn2-c2ccc(F)cc2)c1 | 1.8 | 15.8* | 3.4 | -9.4 | 4.8 | 0.2 | -6.0 | 6.0
C[C@@H]1CN([C@@H](C)CO)C(=O)c2cccc(NC(=O)c3ccncc3)c2O[C@@H]1CN(C)C(=O)Nc1ccc(C(F)(F)F)cc1 | x | x | x | 3.2 | x | x | x | x
Cc1cccc(S(=O)(=O)N[C@@H]2CC[C@@H](CCNS(=O)(=O)c3ccccc3F)O[C@H]2CO)c1 | x | x | x | 11.6 | x | x | x | x
O=C(NCCOc1nc(N2CCCCC2)nc(N2CCCCC2)n1)Nc1ccccc1 | 22.1 | 0.9 | x | -6.5 | 0.6 | -0.6 | -0.4 | x
CCN(CC)c1nc(OCCNC(=O)Nc2ccccc2)nc(N(CC)CC)n1 | -0.5 | 13.0* | 7.5 | x | 6.6 | 7.0 | 3.1 | 2.5
CC(=O)N1CC[C@@H]2[C@H](CO)Nc3ccc(C#Cc4cccnc4)cc3[C@@H]21 | x | x | x | -4.8 | x | x | x | x
O=C(Cc1ccccc1)N1C[C@@H]2[C@H](c3ccccc31)[C@@H](CO)N2C(=O)c1cccc(F)c1 | x | x | x | 8.1 | x | x | x | x
COc1cc(NS(=O)(=O)c2ccc(NC(=S)NC(=O)c3sc4ccccc4c3Cl)cc2)ncn1 | -1.3 | 14.7* | 1.0 | -14.1 | 21.7 | -0.1 | -5.5 | 18.9*
O=C(Nc1ccc2oc(-c3ccncc3)nc2c1)c1ccc2c(c1)OCO2 | -0.1 | -1.3 | x | x | 2.0 | -17.0 | 8.3 | x
O=C(Nc1ccc2oc(-c3ccncc3)nc2c1)c1ccc2c(c1)OCCO2 | 7.8 | 22.9* | 2.5 | x | 10.2 | -7.8 | 23.9 | 11.6*
Cc1cc(NC(=O)c2cc(-c3ccccn3)nc3ccccc23)no1 | 14.5 | -0.7 | x | -13.8 | 11.8 | 8.8 | -2.4 | x
Cc1cc(C)c2nc(-c3ccccn3)cc(C(=O)Nc3cc(C)on3)c2c1 | 14.3 | 16.2* | 4.0 | -25.3 | -19.9 | -4.2 | -5.4 | 2.9
COc1ccc(/C=N/Nc2nc(C)cc(-c3ccccc3)n2)cc1OC | 6.4 | -1.3 | x | -4.7 | 6.0 | 6.0 | -0.6 | x
COc1ccc(/C=N/NC(=O)c2nc(-c3ccccc3)cc(-c3ccccc3)n2)cc1OC | 10.5 | 19.1* | 4.5 | x | 7.6 | 0.5 | 11.8 | 2.1
COc1ccc(/C=N/NC(=O)c2ccncc2)cc1OC | -3.4 | -1.3 | x | -17.0 | -16.5 | 2.2 | -3.2 | x
Cc1ccc(-c2cc(-c3ccccc3)nc(Cl)n2)cc1 | -5.0 | 4.3 | x | -7.9 | 12.1 | 7.1 | 11.7 | x
COc1ccc(/C=C/C(=O)Oc2ccc(/C=N/NC(=O)c3ccccc3)cc2)cc1OC | 4.8 | 23.3* | 21.5* | -13.0 | -26.3 | -7.7 | -9.6 | -2.3
COc1ccc(-c2cnnc(N/N=C/c3ccc(OC)c(OC)c3)n2)cc1 | -5.2 | 12.7* | 5.2 | -23.3 | 17.6 | -14.2 | 11.0 | -2.9
COc1ccc(-c2cc(-c3ccccc3)nc(Cl)n2)cc1OC | -2.9 | 12.7* | 4.9 | -12.2 | -3.1 | -14.2 | 18.9 | 7.2
CO[C@@H]1CN(C)C(=O)c2cc(NC(=O)C3CCCC3)ccc2OC[C@H](C)N(CCC(F)(F)F)C[C@H]1C | x | x | x | 7.8 | x | x | x | x
C[C@H](CO)N1C[C@H](C)[C@@H](CN(C)Cc2ccc(C(F)(F)F)cc2)OCCCC[C@H](C)Oc2ccc(NC(=O)NC3CCCCC3)cc2C1=O | x | x | x | 14.2 | x | x | x | x
CCc1c(C)sc(NC(=O)Cn2nc(C(F)(F)F)c3c2CCCC3)c1C#N | 3.9 | 10.4* | 5.4 | -9.5 | -0.7 | -24.9 | 8.3 | 5.3
C/C(=N\Nc1ncc(Cl)cc1Cl)c1ccc(C#N)cc1 | -4.7 | 4.8 | x | -2.4 | 2.7 | 7.9 | 6.5 | x
COc1ccc(/C(C)=N/Nc2ncc(Cl)cc2Cl)c(O)c1 | -6.2 | 12.8* | 1.8 | x | 6.9 | 0.0 | -4.5 | -2.1
O=C(CCN1CCCCC1)N[C@H]1C=C[C@H](CC(=O)N2CCC(Cc3ccccc3)CC2)O[C@H]1CO | x | x | x | 0.7 | x | x | x | x
Cc1ccc(NC(=O)c2sc(N)nc2-c2ccc([N+](=O)[O-])cc2)c(C)c1 | -5.8 | 0.6 | x | x | 0.5 | 1.4 | -4.4 | x
Cc1ccc(NC(=O)c2sc(N)nc2-c2ccc([N+](=O)[O-])cc2)cc1C | 0.8 | 11.4* | 7.2 | -11.1 | 3.1 | 0.4 | 4.3 | 4.3
C[C@@H]1CN([C@@H](C)CO)S(=O)(=O)c2ccc(C#CC3CC3)cc2O[C@H]1CN(C)CC1CCCC1 | x | x | x | 0.3 | x | x | x | x
CCCCCCCOC(=O)C[N+](C)(C)CCOC1CC2CCC1(C)C2(C)C (stereo unspecified) | -4.6 | 11.6* | 11.9 | x | 3.1 | 5.0 | -2.0 | 17.8*
CCCCCCOC(=O)C[N+](C)(C)CCOC1CC2CCC1(C)C2(C)C (stereo unspecified) | 3.6 | 0.3 | x | -20.7 | -1.0 | -4.3 | 9.7 | x
O=C(C[C@H]1C=C[C@H](NC(=O)C2CCC2)[C@@H](CO)O1)NC1CCC1 | x | x | x | -3.3 | x | x | x | x
Cc1cc(-c2ccc(S(=O)(=O)N(C)Cc3ccccc3)cc2)on1 | -7.9 | 25.3* | 6.2 | -23.8 | -8.8 | 0.5 | -11.5 | -2.3
CCN(CC)S(=O)(=O)c1ccc(N/N=C(\C)c2ccc3c(c2)OCO3)c([N+](=O)[O-])c1 | 2.6 | 1.4 | x | -6.3 | -18.3 | 8.3 | 7.7 | x
C/C(=N\Nc1ccc(S(N)(=O)=O)cc1[N+](=O)[O-])c1ccc2c(c1)OCO2 | 11.4 | 13.1* | 5.4 | -47.2 | 0.5 | 5.0 | 6.2 | 4.5
Cc1noc(C)c1NC(=O)Nc1ccc2c(c1)C(=O)N([C@@H](C)CO)C[C@@H](C)[C@@H](CN(C)Cc1ccccc1)OCCCC[C@@H](C)O2 | x | x | x | 32.6 | x | x | x | x
COc1cccc(/C=N/NC(=O)C(=O)Nc2ccccc2OC(F)(F)C(F)F)c1 | -0.7 | 15.6* | 5.9 | x | -9.9 | -8.5 | 13.4 | 3.5
CCOC(=O)c1c(C)[nH]c(C(=O)COC(=O)c2cc(C)oc2C)c1C | -9.2 | 19.5* | 4.6 | x | 3.9 | -6.6 | 8.5 | 9.9*

3 records picked at random from those above, as already listed:
SMILES | MC4R antagonist | MC4R ag barr | MOR DOR agonist | Yeast UUG start | ASAP1 inh | NRP1-CendR mod | ARFGAP1 inhibitor | MC4R barr ag
C/C(=N\Nc1ccc(S(N)(=O)=O)cc1[N+](=O)[O-])c1ccc2c(c1)OCO2 | 11.4 | 13.1* | 5.4 | -47.2 | 0.5 | 5.0 | 6.2 | 4.5
Cc1ccc(NC(=O)c2sc(N)nc2-c2ccc([N+](=O)[O-])cc2)cc1C | 0.8 | 11.4* | 7.2 | -11.1 | 3.1 | 0.4 | 4.3 | 4.3
COc1cccc(/C=N/NC(=O)C(=O)Nc2ccccc2OC(F)(F)C(F)F)c1 | -0.7 | 15.6* | 5.9 | x | -9.9 | -8.5 | 13.4 | 3.5

Screening data deposited in PubChem BioAssay by several laboratories.
